Test system: providence sweet corn
Assay: Northeastern crop study, sweet corn harvestable yield
Settings: sandy soil, sidedress

Q: For urea, which “Yield (100 wt)” value (N Rate 100 lbs N/acre) is on record?
A: 102 100 wt

Q: And the “Yield (1,000 ears/acre)” value (N Rate 100 lbs N/acre)?
A: 18.3 1,000 ears/acre

Q: What about the “Yield (100 wt)” value (N Rate 140 lbs N/acre) of the same substance?
A: 101 100 wt

Q: What about the “Yield (1,000 ears/acre)” value (N Rate 140 lbs N/acre) of the same substance?
A: 16.5 1,000 ears/acre

Reference: patent publication US9718738B2 (priority 2014, dated 2017)
